Key:
LLC-PK1 control cells = assay: Transepithelial transport assay of R123
[1] = biological target: P-glycoprotein (MDR1wt) in recombinant LLC-PK1 cells (Homo sapiens, UniProt P08183, G185V/S893A); assay: Transepithelial transport assay of R123; conditions: R123 + 1 μM GF120918
[2] = biological target: P-glycoprotein (MDR11199, G1199A) in recombinant LLC-PK1 cells (Homo sapiens, UniProt P08183, S400N)

Sequences of proteins named here, by UniProt entry; tags and fusion partners are left off.
UniProt P08183, whole entry G185V/S893A: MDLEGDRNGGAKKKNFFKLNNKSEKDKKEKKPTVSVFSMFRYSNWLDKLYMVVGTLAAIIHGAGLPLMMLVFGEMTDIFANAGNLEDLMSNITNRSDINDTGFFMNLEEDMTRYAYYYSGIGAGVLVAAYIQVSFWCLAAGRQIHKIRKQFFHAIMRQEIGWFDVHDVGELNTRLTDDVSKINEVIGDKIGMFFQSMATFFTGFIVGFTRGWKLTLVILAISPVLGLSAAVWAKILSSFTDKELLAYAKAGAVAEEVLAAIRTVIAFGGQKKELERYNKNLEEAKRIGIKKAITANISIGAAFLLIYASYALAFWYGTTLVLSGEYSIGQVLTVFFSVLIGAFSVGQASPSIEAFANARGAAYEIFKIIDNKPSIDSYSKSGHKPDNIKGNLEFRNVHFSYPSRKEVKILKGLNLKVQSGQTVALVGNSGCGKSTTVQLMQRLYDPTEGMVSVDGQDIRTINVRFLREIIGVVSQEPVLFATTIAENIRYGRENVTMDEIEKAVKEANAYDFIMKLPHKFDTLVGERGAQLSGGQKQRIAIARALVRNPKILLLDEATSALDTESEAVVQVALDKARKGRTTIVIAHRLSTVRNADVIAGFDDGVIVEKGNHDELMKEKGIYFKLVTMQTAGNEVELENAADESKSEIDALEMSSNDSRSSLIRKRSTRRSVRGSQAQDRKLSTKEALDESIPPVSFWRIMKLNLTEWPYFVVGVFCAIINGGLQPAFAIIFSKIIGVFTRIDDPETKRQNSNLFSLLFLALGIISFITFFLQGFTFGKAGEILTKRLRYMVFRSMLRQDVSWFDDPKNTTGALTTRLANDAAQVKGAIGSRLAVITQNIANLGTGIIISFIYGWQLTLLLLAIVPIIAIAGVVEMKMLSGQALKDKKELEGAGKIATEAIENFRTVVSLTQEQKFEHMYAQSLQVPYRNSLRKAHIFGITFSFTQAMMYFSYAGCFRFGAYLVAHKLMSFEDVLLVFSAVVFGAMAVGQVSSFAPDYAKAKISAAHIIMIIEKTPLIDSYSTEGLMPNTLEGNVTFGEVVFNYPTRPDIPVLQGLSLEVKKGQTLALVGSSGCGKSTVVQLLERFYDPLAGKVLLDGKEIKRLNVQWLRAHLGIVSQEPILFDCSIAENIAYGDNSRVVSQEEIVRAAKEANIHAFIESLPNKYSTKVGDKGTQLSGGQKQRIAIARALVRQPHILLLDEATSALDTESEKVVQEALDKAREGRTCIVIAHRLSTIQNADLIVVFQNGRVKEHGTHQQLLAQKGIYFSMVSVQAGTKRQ
UniProt P08183, whole entry S400N: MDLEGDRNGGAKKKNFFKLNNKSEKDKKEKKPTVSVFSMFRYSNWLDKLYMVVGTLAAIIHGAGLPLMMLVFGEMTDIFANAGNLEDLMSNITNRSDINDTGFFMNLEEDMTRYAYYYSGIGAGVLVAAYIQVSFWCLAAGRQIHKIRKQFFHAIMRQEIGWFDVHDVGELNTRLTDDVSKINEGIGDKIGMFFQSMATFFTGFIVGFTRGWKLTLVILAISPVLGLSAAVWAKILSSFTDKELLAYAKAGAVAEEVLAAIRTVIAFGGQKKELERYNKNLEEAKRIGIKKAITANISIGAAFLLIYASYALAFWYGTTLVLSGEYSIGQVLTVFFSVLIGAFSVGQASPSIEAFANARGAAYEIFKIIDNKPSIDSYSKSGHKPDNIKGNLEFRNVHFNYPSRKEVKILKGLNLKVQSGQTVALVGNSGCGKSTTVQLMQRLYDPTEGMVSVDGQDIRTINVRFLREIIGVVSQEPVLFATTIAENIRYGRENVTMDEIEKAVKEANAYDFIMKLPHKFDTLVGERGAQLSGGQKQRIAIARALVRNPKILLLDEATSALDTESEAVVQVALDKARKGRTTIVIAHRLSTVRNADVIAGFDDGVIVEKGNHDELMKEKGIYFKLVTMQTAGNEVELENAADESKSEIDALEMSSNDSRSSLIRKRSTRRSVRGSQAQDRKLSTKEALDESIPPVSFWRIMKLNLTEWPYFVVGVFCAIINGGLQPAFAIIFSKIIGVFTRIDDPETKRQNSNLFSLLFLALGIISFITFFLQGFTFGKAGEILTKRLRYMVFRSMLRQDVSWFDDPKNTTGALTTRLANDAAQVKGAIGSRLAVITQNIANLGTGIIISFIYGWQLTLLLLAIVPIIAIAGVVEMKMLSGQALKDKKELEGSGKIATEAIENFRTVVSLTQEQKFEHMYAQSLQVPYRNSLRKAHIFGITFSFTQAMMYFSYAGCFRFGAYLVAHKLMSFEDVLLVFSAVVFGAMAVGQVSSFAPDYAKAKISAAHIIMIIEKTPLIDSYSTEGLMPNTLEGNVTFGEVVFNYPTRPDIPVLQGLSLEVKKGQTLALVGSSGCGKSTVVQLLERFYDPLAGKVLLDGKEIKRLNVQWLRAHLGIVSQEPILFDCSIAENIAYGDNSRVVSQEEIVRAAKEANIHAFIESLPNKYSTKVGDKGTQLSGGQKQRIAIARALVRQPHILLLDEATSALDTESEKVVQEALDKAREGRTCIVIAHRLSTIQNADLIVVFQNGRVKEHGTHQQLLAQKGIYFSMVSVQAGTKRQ

PappB→A/PappA→B (LLC-PK1 control cells; 1 μM R123 alone): 0.903 ± 0.200
PappB→A/PappA→B (LLC-PK1 control cells; R123 + 1 μM GF120918): 1.01 ± 0.33
PappB→A/PappA→B [1]: 0.961 ± 0.216
efflux transport lower in MDR11199 than in MDR1wt cells [2]: approximately 4.5 fold
higher accumulation of R123 in MDR11199 cells [2]: ~4.75 fold
Substance: Rhodamine-123 [R123]
